Each structure is given as a SMILES string. pEC50: −log10 of the molar value. Where only a bound is given, the exact number is not on record here.

Chains of the proteins cited; added tags and fusions are not shown.
UniProt O14842, whole entry: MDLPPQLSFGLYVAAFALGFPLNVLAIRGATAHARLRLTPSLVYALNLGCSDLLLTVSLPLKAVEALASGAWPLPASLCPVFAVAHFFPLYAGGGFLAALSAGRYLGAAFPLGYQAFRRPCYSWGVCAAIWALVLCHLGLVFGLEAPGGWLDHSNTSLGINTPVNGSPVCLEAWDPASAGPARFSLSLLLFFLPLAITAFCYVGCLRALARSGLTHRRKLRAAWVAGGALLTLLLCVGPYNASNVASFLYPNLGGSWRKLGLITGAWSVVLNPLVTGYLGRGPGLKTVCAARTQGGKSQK

This test deals with human FFAR1(GPR40) (Homo sapiens, UniProt O14842). As to the kind of experiment: NFAT-RE reporter gene activity assay (Dual-Glo luciferase) for in vitro agonist activity on GPR40 in co-transfected HEK293T cells. The following applies: read-out: Nuclear factor of activated T-cells reporter gene activity assay (NFAT reporter assay) EC50; HEK293T cells co-transfected with GPR40, NFAT-RE and pRL-TK plasmids; 4-hour treatment; highest concentration 1 µM. For orientation: A reporter such as luciferase makes a cellular process visible.
As a reminder, the pEC50 is the EC50 on a negative log10 scale, so that one unit is a factor of ten. `COc1cccc(N2CCC(c3oc4cc([C@@H](CC(=O)O)C5CC5)ccc4c3C(=O)OCc3ccccc3)CC2)c1`: the pEC50 was 8.00 to 9.00.
The same measure for `CCCCOC(=O)c1c(C2CCN(c3cccc(OC)c3)CC2)oc2cc([C@@H](CC(=O)O)C3CC3)ccc12`: 8.00 to 9.00; for `COc1cccc(N2CCC(c3oc4cc([C@@H](CC(=O)O)C5CC5)ccc4c3C(=O)Oc3ccc(F)cc3)CC2)c1`: 7.00 to 8.00.
The same measure for `COc1cccc(N2CCC(c3oc4cc([C@@H](CC(=O)O)C5CC5)ccc4c3C(=O)OC3(c4ccccc4)CC3)CC2)c1`: 8.00 to 9.00; for `COc1cccc(N2CCC(c3oc4cc([C@@H](CC(=O)O)C5CC5)ccc4c3C(=O)OC(C)(C)c3ccccc3)CC2)c1`: less than 7.00; for `COc1cccc(N2CCC(c3oc4cc([C@@H](CC(=O)O)C5CC5)ccc4c3C(=O)Oc3cc(Cc4ccccc4)ccc3F)CC2)c1`: 8.00 to 9.00.
For `CCCCCCOC(=O)c1c(C2CCN(c3cccc(OC)c3)CC2)oc2cc([C@@H](CC(=O)O)C3CC3)ccc12`, the pEC50 was 8.00 to 9.00.
The same measure for `COc1cccc(N2CCC(c3oc4cc([C@@H](CC(=O)O)C5CC5)ccc4c3C(=O)Oc3ccccc3OC(F)(F)F)CC2)c1`: 8.00 to 9.00.
As to `COc1cccc(N2CCC(c3oc4cc([C@@H](CC(=O)O)C5CC5)ccc4c3C(=O)OCC(C)(C)C)CC2)c1`, the pEC50 was more than 9.00.
The same measure for `COc1cccc(N2CCC(c3oc4cc([C@@H](CC(=O)O)C5CC5)ccc4c3C(=O)Oc3cc(CCc4ccccc4)ccc3F)CC2)c1`: 8.00 to 9.00; for `COc1cccc(N2CCC(c3oc4cc([C@@H](CC(=O)O)C5CC5)ccc4c3C(=O)Oc3ccccc3F)CC2)c1`: 8.00 to 9.00.
The same measure for `CC(C)(C)OC(=O)c1c(C2CCN(c3ccccc3Cl)CC2)oc2cc([C@@H](CC(=O)O)C3CC3)ccc12`: 8.00 to 9.00.
The same measure for `COc1cccc(N2CCC(c3oc4cc([C@@H](CC(=O)O)C5CC5)ccc4c3C(=O)Oc3ccccc3Cl)CC2)c1`: 8.00 to 9.00; for `COc1cccc(N2CCC(c3oc4cc([C@@H](CC(=O)O)C5CC5)ccc4c3C(=O)OC3(C)CC3)CC2)c1`: 8.00 to 9.00; for `COc1cccc(N2CCC(c3oc4cc([C@H](C5CC5)C(F)C(=O)O)ccc4c3C(=O)OC(C)(C)C)CC2)c1` (stereo partly shown): more than 9.00.
For `COc1cccc(N2CCC(c3oc4cc([C@@H](CC(=O)O)C5CC5)ccc4c3C(=O)Oc3cc(C4CCCCC4)ccc3F)CC2)c1`, the negative logarithm of the EC50 (pEC50) was 7.00 to 8.00.
Consider `C=C(C)COC(=O)c1c(C2CCN(c3cccc(OC)c3)CC2)oc2cc([C@@H](CC(=O)O)C3CC3)ccc12`, for which the negative-log EC50 (pEC50) is less than 7.00.
The same measure for `COc1cccc(N2CCC(c3oc4cc([C@@H](CC(=O)O)C5CC5)ccc4c3C(=O)O[C@H](C)c3ccccc3)CC2)c1`: 8.00 to 9.00.
With `COc1cccc(N2CCC(c3oc4cc([C@@H](CC(=O)O)C5CC5)ccc4c3C(=O)OC(C)(C)C)CC2)c1F`, the negative logarithm of the EC50 (pEC50) is more than 9.00.
The same measure for `COc1cccc(N2CCC(c3oc4cc([C@@H](CC(=O)O)C5CC5)ccc4c3C(=O)Oc3ccccc3OC)CC2)c1`: 8.00 to 9.00; for `COc1cccc(N2CCC(c3oc4cc([C@@H](CC(=O)O)C5CC5)ccc4c3C(=O)OCC=C(C)C)CC2)c1`: 8.00 to 9.00.
The same measure for `CCCCCOC(=O)c1c(C2CCN(c3cccc(OC)c3)CC2)oc2cc([C@@H](CC(=O)O)C3CC3)ccc12`: 8.00 to 9.00; for `CCOC(=O)c1c(C2CCN(c3cccc(OC)c3)CC2)oc2cc([C@@H](CC(=O)O)C3CC3)ccc12`: 7.00 to 8.00; for `COc1cccc(N2CCC(c3oc4cc([C@@H](CC(=O)O)C5CC5)ccc4c3C(=O)OC(C(F)(F)F)(C(F)(F)F)C(F)(F)F)CC2)c1`: more than 9.00.
Consider `COc1cccc(N2CCC(c3oc4cc([C@@H](CC(=O)O)C5CC5)ccc4c3C(=O)OC(C)C)CC2)c1`, for which the pEC50 was 7.00 to 8.00.
The same measure for `CCCCCCCCOC(=O)c1c(C2CCN(c3cccc(OC)c3)CC2)oc2cc([C@@H](CC(=O)O)C3CC3)ccc12`: 7.00 to 8.00; for `COc1cccc(C2=CCC(c3oc4cc([C@@H](CC(=O)O)C5CC5)ccc4c3C(=O)OCc3ccccc3)CC2)c1` (stereo partly shown): less than 7.00.
The same measure for `COc1cccc(N2CCC(c3oc4cc([C@@H](CC(=O)O)C5CC5)ccc4c3C(=O)Oc3ccccc3C(F)(F)F)CC2)c1`: 8.00 to 9.00.
For `CCCCCCCCCCCCOC(=O)c1c(C2CCN(c3cccc(OC)c3)CC2)oc2cc([C@@H](CC(=O)O)C3CC3)ccc12`, the negative logarithm of the EC50 (pEC50) was 7.00 to 8.00.
The same measure for `CC(C)(C)OC(=O)c1c(C2CCN(c3ccc4c(c3)OCO4)CC2)oc2cc([C@@H](CC(=O)O)C3CC3)ccc12`: more than 9.00; for `COc1cccc(N2CCC(c3oc4cc([C@@H](CC(=O)O)C5CC5)ccc4c3C(=O)OC3(Cc4ccccc4)CC3)CC2)c1`: 8.00 to 9.00.
The same measure for `CC(C)(C)OC(=O)c1c(C2CCN(c3ccccc3F)CC2)oc2cc([C@@H](CC(=O)O)C3CC3)ccc12`: 8.00 to 9.00; for `COc1ccc(F)c(N2CCC(c3oc4cc([C@@H](CC(=O)O)C5CC5)ccc4c3C(=O)OC(C)(C)C)CC2)c1`: 8.00 to 9.00; for `COc1cccc(N2CCC(c3oc4cc([C@H](C5CC5)C(C)C(=O)O)ccc4c3C(=O)OC(C)(C)C)CC2)c1` (stereo partly shown): more than 9.00.
`COc1cccc(N2CCC(c3oc4cc([C@@H](CC(=O)O)C5CC5)ccc4c3C(=O)O[C@@H](C)c3ccccc3)CC2)c1`: the pEC50 is 7.00 to 8.00.
The same measure for `COC(=O)c1c(C2CCN(c3cccc(OC)c3)CC2)oc2cc([C@@H](CC(=O)O)C3CC3)ccc12`: 7.00 to 8.00; for `CCCOC(=O)c1c(C2CCN(c3cccc(OC)c3)CC2)oc2cc([C@@H](CC(=O)O)C3CC3)ccc12`: 8.00 to 9.00; for `COc1cccc(N2CCC(c3oc4cc([C@@H](CC(=O)O)C5CC5)ccc4c3C(=O)OC(C)(C(F)(F)F)C(F)(F)F)CC2)c1`: more than 9.00.
The same measure for `COc1cccc(N2CCC(c3oc4cc([C@@H](CC(=O)O)C5CC5)ccc4c3C(=O)OC(C)(C)C)CC2)c1`: more than 9.00.
The same measure for `CC(C)(C)OC(=O)c1c(C2CCN(c3cccc(C(F)(F)F)c3)CC2)oc2cc([C@@H](CC(=O)O)C3CC3)ccc12`: 7.00 to 8.00; for `COc1cccc(N2CCC(c3oc4cc([C@@H](CC(=O)O)C5CC5)ccc4c3C(=O)O)CC2)c1`: less than 6.00; for `COc1cccc(C2=CCC(c3oc4cc([C@@H](CC(=O)O)C5CC5)ccc4c3C(=O)OCC(C)C)CC2)c1` (stereo partly shown): 8.00 to 9.00.
For the compound `COc1cccc(N2CCC(c3oc4cc([C@@H](CC(=O)O)C5CC5)ccc4c3C(=O)OCC(C)C)CC2)c1`, the negative logarithm of the EC50 (pEC50) was 8.00 to 9.00.
As for `COc1cccc(N2CCC(c3oc4cc([C@@H](CC(=O)O)C5CC5)ccc4c3C(=O)OC(C)c3ccccn3)CC2)c1` (stereo partly shown), the pEC50 was 7.00 to 8.00.
Take `COc1cccc(N2CCC(c3oc4cc([C@@H](CC(=O)O)C5CC5)ccc4c3C(=O)OC3(C(C)(C)c4ccccc4)CC3)CC2)c1`: the pEC50 is 8.00 to 9.00.
The same measure for `CC(C)(C)OC(=O)c1c(C2CCN(c3cccc(OC(F)(F)F)c3)CC2)oc2cc([C@@H](CC(=O)O)C3CC3)ccc12`: less than 7.00.

These data come from EP4821927A1, “BENZO HETEROCYCLIC COMPOUND AND USE THEREOF” (dated 2026).
